pIC50: −log10 of the molar value.
Target: T1, vanilloid receptor (Rattus norvegicus, UniProt O35433)
T1 construct: DRG nerve cells from the primary culture of 2 days were equilibrated; endogenous in cells; host or cells: primary culture of dorsal root ganglion neurons from neonatal SD rats
Assay: 45Ca influx test in primary cultured DRG neurons (capsaicin-induced calcium uptake)
Type: cell-based
Conditions: neonatal SD rat DRG neurons; capsaicin 0.5 μM; 45Ca 10 μCi/ml; 10 min at room temperature
Procedure: 1) Separation of Spinal Dorsal Root Ganglia (DRG) in Newborn Rats and Primary Culture Thereof
Neonatal (2-3 day old or younger than 2-3 day old) SD rats were put in ice for 5 minutes to anesthetize and disinfected with 70% ethanol. DRG of all part of spinal cord were dissected (Wood et al., 1988, J. Neurosci. 8, pp 3208-3220) and collected in DME/F12 medium to which 1.2 g/l sodium bicarbonate, 50 mg/l gentamycin were added. The DRG were incubated sequentially at 37° C. for 30 min in 200 U/ml collagenase and 2.5 mg/ml trypsin, separately. The ganglia were washed twice with DME/F12 medium supplemented with 10% horse serum, triturated through a fire-polished Pasteur pipette, filtered through Nitex 80 membrane to obtain single cell suspension and the suspension was washed once more. This was subjected to centrifugation, then resuspended in cell culture medium at certain level of cell density. […]
DRG nerve cells from the primary culture of 2 days were equilibrated by washing 4 times with HEPES (10 mM, pH 7.4)-buffered Ca^2+, Mg^2+-free HBSS (H-HBSS). […] After the addition of scintillation cocktail of into each well, the amount of ^45Ca influx into neuron was measured by counting radioactivity.

Amino acid sequences for entries named in this document (tags omitted).
UniProt O35433, whole entry: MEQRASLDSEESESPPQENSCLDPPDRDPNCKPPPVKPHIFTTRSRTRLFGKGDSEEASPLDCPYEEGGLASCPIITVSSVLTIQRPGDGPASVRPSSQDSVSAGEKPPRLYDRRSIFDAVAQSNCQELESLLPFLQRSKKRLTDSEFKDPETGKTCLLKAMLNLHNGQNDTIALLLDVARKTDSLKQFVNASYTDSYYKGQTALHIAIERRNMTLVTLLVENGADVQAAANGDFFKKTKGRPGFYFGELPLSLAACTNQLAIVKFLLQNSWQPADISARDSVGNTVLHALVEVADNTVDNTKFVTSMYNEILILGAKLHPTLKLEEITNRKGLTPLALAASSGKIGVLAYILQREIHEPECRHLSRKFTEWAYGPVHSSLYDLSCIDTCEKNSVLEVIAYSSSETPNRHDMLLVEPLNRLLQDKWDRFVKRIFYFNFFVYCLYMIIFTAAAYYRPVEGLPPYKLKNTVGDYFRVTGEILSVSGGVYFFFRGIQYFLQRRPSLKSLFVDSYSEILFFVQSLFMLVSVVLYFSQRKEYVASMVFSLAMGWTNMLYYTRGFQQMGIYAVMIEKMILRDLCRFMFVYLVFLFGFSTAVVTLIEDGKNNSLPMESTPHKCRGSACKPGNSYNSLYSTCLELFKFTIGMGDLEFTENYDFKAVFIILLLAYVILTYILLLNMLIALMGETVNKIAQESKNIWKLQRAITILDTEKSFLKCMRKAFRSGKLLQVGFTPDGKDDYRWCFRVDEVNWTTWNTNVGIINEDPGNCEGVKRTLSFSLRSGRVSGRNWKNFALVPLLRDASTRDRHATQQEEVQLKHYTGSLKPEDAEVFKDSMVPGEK

pIC50: 6.31
Compound: CC(C)(C)c1ccc(C=CC(=O)NCc2ccc(NS(C)(=O)=O)c(F)c2)cc1 [Example 1, 3-[4-t-butyl-phenyl]-N-[3-fluoro-4-methanesulfonylamino-benzyl]acrylamide]
